Measured values taken from patent publication US5968817A, “DNA encoding serotonin receptors” (priority 1993, dated 1999).
pIC50: −log10 of the molar value. Where two headings read alike, the source gives them in different places.

Sequences of proteins named here, by UniProt entry; tags and fusion partners are left off. Residues count along the entry.
UniProt P35364, whole entry: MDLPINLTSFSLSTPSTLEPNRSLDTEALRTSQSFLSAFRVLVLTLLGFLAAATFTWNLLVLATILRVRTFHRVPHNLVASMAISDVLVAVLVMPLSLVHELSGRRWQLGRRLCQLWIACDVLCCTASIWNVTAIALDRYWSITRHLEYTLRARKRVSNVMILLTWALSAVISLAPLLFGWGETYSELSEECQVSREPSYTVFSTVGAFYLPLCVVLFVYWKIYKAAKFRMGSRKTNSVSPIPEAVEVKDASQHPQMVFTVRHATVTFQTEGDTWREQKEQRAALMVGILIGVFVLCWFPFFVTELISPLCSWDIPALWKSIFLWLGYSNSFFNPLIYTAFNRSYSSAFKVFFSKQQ
UniProt P35365, whole entry S4C/P322A: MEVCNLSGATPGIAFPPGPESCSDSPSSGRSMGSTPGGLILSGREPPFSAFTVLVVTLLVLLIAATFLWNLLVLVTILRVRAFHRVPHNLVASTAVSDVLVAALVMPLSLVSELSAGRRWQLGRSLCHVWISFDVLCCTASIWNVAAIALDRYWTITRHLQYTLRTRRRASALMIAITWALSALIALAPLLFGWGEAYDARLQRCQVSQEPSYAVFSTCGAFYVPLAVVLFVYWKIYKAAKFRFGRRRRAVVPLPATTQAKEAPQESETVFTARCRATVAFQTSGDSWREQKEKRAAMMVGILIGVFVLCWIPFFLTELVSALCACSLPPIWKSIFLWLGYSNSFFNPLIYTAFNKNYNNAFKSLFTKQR
UniProt P32305, 1-435: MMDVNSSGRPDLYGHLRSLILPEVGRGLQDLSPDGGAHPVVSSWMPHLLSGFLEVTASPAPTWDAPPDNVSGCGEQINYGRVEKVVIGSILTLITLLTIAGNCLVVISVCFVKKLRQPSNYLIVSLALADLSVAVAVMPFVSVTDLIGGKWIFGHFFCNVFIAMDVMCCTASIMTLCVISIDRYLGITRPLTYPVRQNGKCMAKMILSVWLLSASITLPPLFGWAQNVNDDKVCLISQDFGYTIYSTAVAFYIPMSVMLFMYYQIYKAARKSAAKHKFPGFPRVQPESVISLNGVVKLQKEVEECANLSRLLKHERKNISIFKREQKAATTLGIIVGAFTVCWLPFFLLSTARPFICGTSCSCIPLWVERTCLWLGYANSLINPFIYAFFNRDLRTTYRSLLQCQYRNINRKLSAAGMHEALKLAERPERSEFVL

Assays:
[1] = biological target: T1, REC17 serotonin receptor (5-HT5α) (Rattus norvegicus, UniProt P35364); assay: [125I]-LSD competition binding to membranes of CosM6 cells expressing REC17
T1 construct: contains an ORF encoding 357 amino acids; expressed in transfected cells; host or cells: CosM6 (subclone of COS-7), transient, vector pCMV4

[2] = biological target: T2, MR22 serotonin receptor (5-HT5β) (Rattus norvegicus, UniProt P35365); assay: [125I]-LSD competition binding to membranes of CosM6 cells expressing MR22
T2 construct: contains an open reading frame (ORF) encoding 370 amino acids; expressed in transfected cells; host or cells: CosM6 (subclone of COS-7), transient, vector pCMV4

[3] = biological target: T3, MR77 serotonin receptor (5-HT1E-Like) (Rattus norvegicus, UniProt P30940); assay: [125I]-LSD competition binding to membranes of CosM6 cells expressing MR77; details: 1 nM [125I]-LSD, 60 min 37° C.
T3 construct: expressed in transfected cells; host or cells: CosM6 (subclone of COS-7), transient, vector pCMV4
T3 sequence (P30940 1-366): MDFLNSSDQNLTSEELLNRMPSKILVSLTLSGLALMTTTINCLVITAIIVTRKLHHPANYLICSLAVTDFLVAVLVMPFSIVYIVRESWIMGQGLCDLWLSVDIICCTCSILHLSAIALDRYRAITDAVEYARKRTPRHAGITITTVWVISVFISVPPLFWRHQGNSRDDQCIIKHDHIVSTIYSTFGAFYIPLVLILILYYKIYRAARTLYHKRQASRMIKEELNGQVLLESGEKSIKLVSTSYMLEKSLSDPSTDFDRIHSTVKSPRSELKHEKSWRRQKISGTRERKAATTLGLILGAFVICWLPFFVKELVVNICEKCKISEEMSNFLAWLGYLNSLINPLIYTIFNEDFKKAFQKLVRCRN

[4] = biological target: T4, REC20 serotonin receptor (5-HT6) (Rattus norvegicus, UniProt P32305); assay: [125I]-LSD competition binding to membranes of CosM6 cells expressing REC20; details: 1 nM [125I]-LSD, 60 min 37° C.
T4 construct: encodes a putative protein of 435 amino acids; expressed in transfected cells; host or cells: CosM6 (subclone of COS-7), transient, vector pCMV4

| SMILES | pIC50 [2] | pIC50 [3] | other results |
| --- | --- | --- | --- |
| CN1C[C@H](C(=O)N[C@]2(C)O[C@@]3(O)[C@@H]4CCCN4C(=O)[C@H](Cc4ccccc4)N3C2=O)C=C2c3cccc4[nH]cc(c34)C[C@H]21 [Ergotamine] | – | – | pIC50 [1]: 8.00; sensitivity of REC17 to the ligand (in words) [1]: sensitive |
| NCCc1c[nH]c2ccc(O)cc12 [Ligand 5-HT, 5-hydroxytryptamine] | 5.79 | – | – |
| CCCN(CCC)C1CCc2cccc(O)c2C1 (centres unmarked) [Ligand 8-OH-DPAT] | – | < 6.00 | – |
| CSc1ccc2c(c1)C(N1CCN(C)CC1)Cc1ccccc1S2 (centres unmarked) [Methiothepin] | – | – | pIC50 ([2]; CosM6 membranes, 1 nM [125I]-LSD, 60 min 37° C., read-out: IC50 for competition with 125I-LSD, MR22): 6.75; pIC50 [4]: 8.89 |
| CNS(=O)(=O)Cc1ccc2[nH]cc(CCN(C)C)c2c1 [Sumatriptan] | – | 7.17 | – |
| COC(=O)[C@@H]1[C@H]2C[C@H]3c4[nH]c5ccccc5c4CCN3C[C@@H]2CC[C@@H]1O [Yohimbine] | < 6.00 | – | – |
